Measurements: patent US9303062B2, “Solid oxidized glutathione salt and method for producing same” (priority 2011, dated 2016)

Tests used:
[1] = Solubility in water at 25° C. under normal pressure; assay type: physicochemical; details: supernatant by HPLC
Procedure: The solubility of the solid oxidized glutathione salt of the present invention in water at temperature of 25° C. can be calculated according to the following formula, and the solubility is, for example, 10 mass % or more, preferably 20 mass % or more, and more preferably 30 mass % or more.
Solubility (%)=mass of dissolved oxidized glutathione/(mass of water+mass of dissolved oxidized glutathione)×100
Evaluation 1: Solubility in water at 25° C. under normal pressure and deliquescency of oxidized glutathione salt
Each of the powders of the solid-state oxidized glutathione salt obtained in the above respective Examples was dissolved in water until the powder was not further dissolved. After each slurry was stirred for 30 minutes or longer, the supernatant was obtained and the concentrations of each oxidized glutathione and salt were calculated using HPLC. For comparison, the solubilities of the following conventionally known solid oxidized glutathiones were investigated in the same manner as the above.

[2] = Deliquescency of powder at 25° C., normal pressure, 75% RH, observed with naked eyes; assay type: physicochemical; details: relative humidity 75% RH; for Deliquescency 2 hours: after 2 hours; for Deliquescency 24 hours: after 24 hours
Procedure: The solid oxidized glutathione salt obtained as described above has low deliquescency and high water solubility. The deliquescency of the solid oxidized glutathione can be evaluated by allowing a powder of the salt to stand in an environment at a temperature of 25° C., normal pressure, e.g. 1 atmospheric pressure, and a relative humidity of 75% RH, and observing whether deliquescence starts or not with naked eyes.
Each of the powders of the solid-state oxidized glutathione salt obtained in the above respective Examples was allowed to stand in atmospheric condition of a temperature of 25° C., normal pressure and a relative humidity of 75% RH. After 2 hours or 24 hours, it was determined whether or not deliquescence was is present by observing the occurrence of shape change with naked eyes. For comparison, the deliquescencies of the above commercially available solid oxidized glutathiones were investigated in the same manner.

Substance	Solubility [1] [mass %]	Deliquescency 2 hours [2]	Deliquescency 24 hours [2]
Oxidized glutathione monohydrate [Oxidized glutathion monohydrate, reference compound]	2.4	no	no
Oxidized glutathione disodium salt [Oxidized glutathion disodium salt, reference compound]	51.1	deliquescent	deliquescent
oxidized glutathione monocalcium salt [Example 5]	58.6	no	no
